{"sequences": {"note": "By UniProt entry, the sequences of proteins in these tests, tags left out.", "UniProt P60953, whole entry": "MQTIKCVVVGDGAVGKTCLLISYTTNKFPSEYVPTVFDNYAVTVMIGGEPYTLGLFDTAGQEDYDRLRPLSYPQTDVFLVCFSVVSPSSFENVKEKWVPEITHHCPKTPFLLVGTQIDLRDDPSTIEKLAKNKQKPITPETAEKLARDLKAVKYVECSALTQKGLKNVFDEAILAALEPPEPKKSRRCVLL"}, "source": "PubChem BioAssay AID761", "about": "(NMMLSC, 2007)", "note": "This is a selection; strong and weak results do not stand in their true shares. Active and inactive are the calls of the source.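 Rule for the calls: active = percent activity GTP binding at least 20 points away from the 100% baseline, either down as inhibitor or up as activator; inconclusive = compound flagged as likely green fluorescent from well-wide comparison; inactive = the rest.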", "data": [{"target": "Cell division control protein 42 homolog (Homo sapiens) (UniProt P60953)", "experiment": "wildtype Cdc42 fluorescent GTP binding changes, either direction – biochemical, multiplex bead flow cytometry, Bodipy-GTP, primary screen (AID 761);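 note: median bead fluorescence of bound Bodipy-FL-GTP at 100 nM; 0% = excess unlabeled GTP control and 100% = no compound control; below 100% means less GTP binding so inhibitor and above means activator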", "settings": "GST-Cdc42 beads, at 10 µM, actives lie on both sides", "values": [{"smiles": "CP(=O)(Nc1ccc(SC(F)(F)F)cc1)Oc1ccccc1", "note": "(stereo not drawn)", "percent activity (GTP binding)": "inactive: 99%"}, {"smiles": "CCCOc1ccc(NP(C)(=O)Oc2ccc(Cl)cc2)cc1", "note": "(stereo not drawn)", "percent activity (GTP binding)": "inactive: 95%"}, {"smiles": "COc1ccccc1OP(C)(=O)Nc1c(C)cccc1C", "note": "(stereo not drawn)", "percent activity (GTP binding)": "inactive: 103%"}, {"smiles": "CN1CCCCC1COC(=O)C1(O)c2ccccc2CCc2ccccc21", "note": "(stereo not drawn)", "percent activity (GTP binding)": "inactive: 105%"}, {"smiles": "O=[N+]([O-])c1cc([N+](=O)[O-])c(-n2nnc3ccccc32)c([N+](=O)[O-])c1", "percent activity (GTP binding)": "inactive: 92%"}, {"smiles": "Cc1nc2ccc3ccccc3c2s1.O=[N+]([O-])c1cc([N+](=O)[O-])c(O)c([N+](=O)[O-])c1", "percent activity (GTP binding)": "inactive: 100%"}, {"smiles": "CCOC(=O)c1ccc(NP(C)(=O)Oc2cc(C)cc(C)c2)cc1", "note": "(stereo not drawn)", "percent activity (GTP binding)": "inactive: 99%"}, {"smiles": "Cc1cc(C)cc(OP(C)(=O)Nc2ccc(C)cc2C)c1", "note": "(stereo not drawn)", "percent activity (GTP binding)": "inactive: 101%"}, {"smiles": "Cc1ccc(C)c(NP(C)(=O)Oc2ccccc2)c1", "note": "(stereo not drawn)", "percent activity (GTP binding)": "inactive: 102%"}, {"smiles": "CP(=O)(Nc1cccc(Br)c1)Oc1ccccc1", "note": "(stereo not drawn)", "percent activity (GTP binding)": "inactive: 96%"}, {"smiles": "Cc1cc(C)cc(OP(C)(=O)Nc2ccccn2)c1", "note": "(stereo not drawn)", "percent activity (GTP binding)": "inactive: 98%"}, {"smiles": "CC1=NCCc2c1[nH]c1ccccc21.O=[N+]([O-])c1cc([N+](=O)[O-])c(O)c([N+](=O)[O-])c1", "percent activity (GTP binding)": "inactive: 96%"}, {"smiles": "O=[N+]([O-])c1ccc2c(c1)C=Nc1ccccc1O2", "percent activity (GTP binding)": "inactive: 92%"}, {"smiles": "CC(C)(C)c1ccc(OP(C)(=O)Nc2ccc(SC(F)(F)F)cc2)cc1", "note": "(stereo not drawn)", "percent activity (GTP binding)": "inactive: 93%"}, {"smiles": "Cc1cccc(C)c1OP(C)(N)=O", "note": "(stereo not drawn)", "percent activity (GTP binding)": "inactive: 95%"}, {"smiles": "Cc1cc(C)cc(OP(C)(N)=O)c1", "note": "(stereo not drawn)", "percent activity (GTP binding)": "inactive: 100%"}, {"smiles": "COc1ccccc1OP(C)(=O)Nc1cc(Cl)ccc1C", "note": "(stereo not drawn)", "percent activity (GTP binding)": "inactive: 102%"}, {"smiles": "COc1ccc(OP(C)(=O)Nc2cccc(F)c2)cc1", "note": "(stereo not drawn)", "percent activity (GTP binding)": "inactive: 98%"}, {"smiles": "COc1ccccc1OP(C)(=O)Nc1ccc(C)cc1", "note": "(stereo not drawn)", "percent activity (GTP binding)": "inactive: 98%"}, {"smiles": "Cc1ccc(NP(C)(=O)Oc2ccccc2)c(C)c1", "note": "(stereo not drawn)", "percent activity (GTP binding)": "inactive: 95%"}, {"smiles": "CCOC(=O)c1ccc(NP(C)(=O)Oc2ccccc2)cc1", "note": "(stereo not drawn)", "percent activity (GTP binding)": "inactive: 101%"}, {"smiles": "CCN(CC)CCCOC(=O)C(O)(c1ccccc1)c1ccccc1", "percent activity (GTP binding)": "inactive: 102%"}, {"smiles": "CP(=O)(NC(=O)Nc1ccccc1)Oc1ccccc1", "note": "(stereo not drawn)", "percent activity (GTP binding)": "inactive: 102%"}, {"smiles": "Cc1cc(C)cc(OP(C)(=O)Nc2ccc(SC(F)(F)F)cc2)c1", "note": "(stereo not drawn)", "percent activity (GTP binding)": "inactive: 95%"}, {"smiles": "Cc1cccc(C)c1OP(C)(=O)Nc1ccc(SC(F)(F)F)cc1", "note": "(stereo not drawn)", "percent activity (GTP binding)": "inactive: 96%"}, {"smiles": "CP(=O)(Oc1ccccc1)OC(c1ccccc1)C(F)(F)F", "note": "(stereo not drawn)", "percent activity (GTP binding)": "inactive: 99%"}, {"smiles": "CP(=O)(Nc1ccccn1)Oc1ccc(Cl)cc1", "note": "(stereo not drawn)", "percent activity (GTP binding)": "inactive: 94%"}, {"smiles": "CCOC(=O)c1ccc(NP(C)(=O)Oc2ccc(OC)cc2)cc1", "note": "(stereo not drawn)", "percent activity (GTP binding)": "inactive: 102%"}, {"smiles": "CCOP(C)(=S)SCC(=O)NC(C)C(=O)O", "note": "(stereo not drawn)", "percent activity (GTP binding)": "inactive: 109%"}, {"smiles": "CP(=O)(Nc1ccccc1Br)Oc1ccccc1", "note": "(stereo not drawn)", "percent activity (GTP binding)": "inactive: 106%"}, {"smiles": "COc1ccccc1OP(C)(=O)Nc1ccccc1", "note": "(stereo not drawn)", "percent activity (GTP binding)": "inactive: 97%"}, {"smiles": "CP(=S)(Nn1cnnc1)Oc1ccccc1", "note": "(stereo not drawn)", "percent activity (GTP binding)": "inactive: 103%"}, {"smiles": "CCOC(=O)c1ccc(NP(C)(=O)Oc2ccc(Cl)cc2)cc1", "note": "(stereo not drawn)", "percent activity (GTP binding)": "inactive: 99%"}, {"smiles": "CP(=O)(OC12CC3CC(CC(C3)C1)C2)OC12CC3CC(CC(C3)C1)C2", "percent activity (GTP binding)": "inactive: 100%"}, {"smiles": "CP(=O)(Oc1ccccc1)N1CCOC1=O", "note": "(stereo not drawn)", "percent activity (GTP binding)": "inactive: 99%"}, {"smiles": "CCc1ccc(OP(C)(=O)Nc2cccnc2)cc1", "note": "(stereo not drawn)", "percent activity (GTP binding)": "inactive: 93%"}, {"smiles": "CCN(CC)CC(O)COC(=O)C(O)(c1ccccc1)C1CCCCC1", "note": "(stereo not drawn)", "percent activity (GTP binding)": "inactive: 106%"}, {"smiles": "COc1ccc(OP(C)(=O)Nc2ccc(Br)cc2)cc1", "note": "(stereo not drawn)", "percent activity (GTP binding)": "inactive: 98%"}, {"smiles": "CN(C)C(=O)c1c([N+](=O)[O-])cc([N+](=O)[O-])cc1[N+](=O)[O-]", "percent activity (GTP binding)": "inactive: 95%"}, {"smiles": "CC(C)(C)c1ccc(OP(C)(=O)O)cc1", "percent activity (GTP binding)": "inactive: 111%"}, {"smiles": "COc1ccccc1OP(C)(=O)Nc1ccccc1Br", "note": "(stereo not drawn)", "percent activity (GTP binding)": "inactive: 94%"}, {"smiles": "CP(=O)(Nc1ccc(Cl)cc1)Oc1ccc(F)cc1", "note": "(stereo not drawn)", "percent activity (GTP binding)": "inactive: 102%"}, {"smiles": "COc1ccc(OP(C)(=O)Nc2ccccn2)cc1", "note": "(stereo not drawn)", "percent activity (GTP binding)": "inactive: 95%"}, {"smiles": "CN(C)CCOC(=O)C(O)(c1ccccc1)C1CCCC1", "note": "(stereo not drawn)", "percent activity (GTP binding)": "inactive: 100%"}, {"smiles": "CP(=O)(Nc1ccccn1)Oc1ccccc1", "note": "(stereo not drawn)", "percent activity (GTP binding)": "inactive: 105%"}, {"smiles": "COc1ccccc1OP(C)(=O)Nc1ccc(C)cc1C", "note": "(stereo not drawn)", "percent activity (GTP binding)": "inactive: 104%"}, {"smiles": "CCc1ccc(OP(C)(=O)O)cc1", "percent activity (GTP binding)": "inactive: 98%"}, {"smiles": "O=[N+]([O-])c1cc([N+](=O)[O-])c(Nc2ccccn2)c([N+](=O)[O-])c1", "percent activity (GTP binding)": "inactive: 97%"}, {"smiles": "Cc1c(NP(C)(=O)Oc2ccc(C(C)C)cc2)c(=O)n(-c2ccccc2)n1C", "note": "(stereo not drawn)", "percent activity (GTP binding)": "inactive: 101%"}, {"smiles": "COc1ccccc1OP(C)(=O)Nc1ccc(C)c(C)c1", "note": "(stereo not drawn)", "percent activity (GTP binding)": "inactive: 99%"}, {"smiles": "COc1ccc(OP(C)(=O)Nc2ccccc2Br)cc1", "note": "(stereo not drawn)", "percent activity (GTP binding)": "inactive: 101%"}, {"smiles": "Cc1cc(C)cc(OP(C)(=O)Nc2cccc(C(F)(F)F)c2)c1", "note": "(stereo not drawn)", "percent activity (GTP binding)": "inactive: 100%"}, {"smiles": "CP(=O)(OCCOc1ccccc1)OCCOc1ccccc1", "percent activity (GTP binding)": "inactive: 93%"}, {"smiles": "CP(=O)(Nc1ccc(Cl)cc1Cl)Oc1ccccc1", "note": "(stereo not drawn)", "percent activity (GTP binding)": "inactive: 97%"}, {"smiles": "Cc1nc2ccc3ccccc3c2o1.O=[N+]([O-])c1cc([N+](=O)[O-])c(O)c([N+](=O)[O-])c1", "percent activity (GTP binding)": "inactive: 100%"}, {"smiles": "CCOC(=O)c1ccc(NP(C)(=O)Oc2ccc(F)cc2)cc1", "note": "(stereo not drawn)", "percent activity (GTP binding)": "inactive: 101%"}, {"smiles": "COc1ccc(OP(C)(=O)Nc2ccc(SC(F)(F)F)cc2)cc1", "note": "(stereo not drawn)", "percent activity (GTP binding)": "inactive: 92%"}, {"smiles": "CP(=O)(Nc1ccccc1)Oc1ccc(F)cc1", "note": "(stereo not drawn)", "percent activity (GTP binding)": "inactive: 105%"}, {"smiles": "CCN(CC)CCCOC(=O)C(O)(c1ccccc1)C1CCCCC1", "note": "(stereo not drawn)", "percent activity (GTP binding)": "inactive: 100%"}, {"smiles": "CP(=O)(Nc1ccccc1F)Oc1ccccc1", "note": "(stereo not drawn)", "percent activity (GTP binding)": "inactive: 97%"}, {"smiles": "O=C(OCCN1CCN(CCOCc2ccccc2)CC1)C(O)(c1ccccc1)c1ccccc1", "percent activity (GTP binding)": "inactive: 105%"}, {"smiles": "CCOP(C)(=S)SCC(=O)NC(C)(CC)C(=O)O", "note": "(stereo not drawn)", "percent activity (GTP binding)": "inactive: 97%"}, {"smiles": "Cc1ccccc1NP(C)(=O)Nc1ccccc1C", "percent activity (GTP binding)": "inactive: 99%"}, {"smiles": "CP(=O)(Nc1ccc2c(c1)OCCO2)Oc1ccccc1", "note": "(stereo not drawn)", "percent activity (GTP binding)": "inactive: 100%"}, {"smiles": "CN(C)CCOC(=O)C(O)(c1ccccc1)C1CCCCC1", "note": "(stereo not drawn)", "percent activity (GTP binding)": "inactive: 101%"}, {"smiles": "COc1ccc(NP(C)(=O)Oc2ccccc2OC)cc1", "note": "(stereo not drawn)", "percent activity (GTP binding)": "inactive: 97%"}, {"smiles": "COc1ccc(OP(C)(=O)Nc2cccc(Br)c2)cc1", "note": "(stereo not drawn)", "percent activity (GTP binding)": "inactive: 101%"}, {"smiles": "O=[N+]([O-])c1cc([N+](=O)[O-])c(NCC2CCS(=O)(=O)C2)c([N+](=O)[O-])c1", "note": "(stereo not drawn)", "percent activity (GTP binding)": "inactive: 95%"}]}]}
